Measured values published in US20140377189A1, “PULMONARY ADMINISTRATION OF ROTIGOTINE” (MAP Pharmaceuticals, Inc., priority 2013, published 2014).

Assay: In situ rotigotine salt screening (precipitate formation in ethanol/HFA 227 solution formulation)
Format: physicochemical
Settings: 1 mg/mL rotigotine free base with acid, 10% (w/w) ethanol in HFA 227; immediately upon preparation
Protocol: Rotigotine, bulk drug substance, was purchased from Chemagis (Perrigo API). A stock solution of rotigotine was prepared by dissolving rotigotine particles in ethanol at 10 mg/mL. With 1.5 mL rotigotine stock solution added to formulation bottles, each formulation bottle contained 15 mg rotigotine. For preparation of acid stock solutions, it was assumed that complete reaction or ion-pairing between rotigotine and acid. Based on the molecular weight and number of anions of each acid as listed in Table 1, acids stock solutions were prepared by dissolving the required amount in ethanol.
Each formulation bottle was filed with 1.5 mL of rotigotine stock solution and 1.0 ml, of acid stock solution. The formulation bottles (PET bottles) were then sealed with continuous valves and vortexed for 30 seconds to mix the solution well. Finally, 17.6 g of 1,1,1,2,3,3,3-heptafluoropropane (HFA227 (Mexichem)) to make a final volume of 15 mL of rotigotine formulation. All the bottles were hand shaken for 10 seconds.
All in situ salt screening samples were made as 1 mg/mL of rotigtine free base in 10% (w/w) ethanol in HFA 227. Acids corresponding to the salt forms in Table 1 were added according to the molar ratio with rotigotine for complete reaction. As 1 mg/mL was the minimal required dose at the time of experiment, all formulations were tested at this level to screen out non-solution salt formulations. […]

Observation Immediate: white precipitate
Substance: Succinate
